Results reported in patent US10172905B1, “Treatment of protein degradation disorders” (President and Fellows of Harvard College, priority 2005, dated 2019).

Biological target: T1, HDAC6 (Homo sapiens, UniProt Q9UBN7)
T1 sequence (Q9UBN7 1-1215): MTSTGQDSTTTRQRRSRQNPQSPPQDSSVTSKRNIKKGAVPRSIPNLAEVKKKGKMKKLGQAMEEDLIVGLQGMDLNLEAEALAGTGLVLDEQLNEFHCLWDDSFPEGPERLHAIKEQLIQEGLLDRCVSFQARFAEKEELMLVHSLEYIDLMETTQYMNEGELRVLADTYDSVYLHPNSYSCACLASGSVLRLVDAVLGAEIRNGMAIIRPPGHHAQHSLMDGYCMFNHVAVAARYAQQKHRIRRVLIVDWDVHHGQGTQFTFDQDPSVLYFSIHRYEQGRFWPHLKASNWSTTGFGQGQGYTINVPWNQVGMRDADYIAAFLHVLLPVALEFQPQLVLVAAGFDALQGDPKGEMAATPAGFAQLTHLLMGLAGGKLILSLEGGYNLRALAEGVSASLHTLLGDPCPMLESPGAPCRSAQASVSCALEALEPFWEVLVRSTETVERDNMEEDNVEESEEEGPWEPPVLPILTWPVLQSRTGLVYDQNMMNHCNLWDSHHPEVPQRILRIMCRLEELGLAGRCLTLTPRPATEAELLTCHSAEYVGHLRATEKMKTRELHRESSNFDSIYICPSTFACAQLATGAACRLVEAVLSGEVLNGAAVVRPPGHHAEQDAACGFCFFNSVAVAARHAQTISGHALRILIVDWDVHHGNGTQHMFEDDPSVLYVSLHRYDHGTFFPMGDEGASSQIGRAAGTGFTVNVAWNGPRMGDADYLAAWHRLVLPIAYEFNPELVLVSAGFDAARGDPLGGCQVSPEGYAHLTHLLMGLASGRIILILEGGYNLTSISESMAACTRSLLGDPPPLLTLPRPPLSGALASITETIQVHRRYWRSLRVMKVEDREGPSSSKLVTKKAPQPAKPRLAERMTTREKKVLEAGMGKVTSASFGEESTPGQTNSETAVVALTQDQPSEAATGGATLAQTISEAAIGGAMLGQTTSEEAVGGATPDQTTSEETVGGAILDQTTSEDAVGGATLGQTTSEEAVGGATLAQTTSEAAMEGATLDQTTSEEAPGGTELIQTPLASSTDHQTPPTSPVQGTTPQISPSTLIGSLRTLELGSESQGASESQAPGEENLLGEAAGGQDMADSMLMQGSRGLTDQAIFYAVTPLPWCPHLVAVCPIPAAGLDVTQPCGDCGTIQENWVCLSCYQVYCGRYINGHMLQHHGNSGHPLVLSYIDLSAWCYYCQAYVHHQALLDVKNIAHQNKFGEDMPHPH
Assay: Western blotting with anti-acetylated lysine / HDAC6 Abs
Assay type: cell-based
Parameters: MM.1S, U266, INA-6, RPMI8226, and RPMI-LR5 MM cell lines constitutively express HDAC6; endogenous in cells; host or cells: MM.1S, RPMI8226 and other MM cell lines; MM patient BMPCs/PBMCs
Details: SAHA 2.5 and 5 μM, 24 h, MM.1S and RPMI8226 cells
Method: MM cells were cultured with Velcade and/or Tubacin; harvested; washed; and lysed using lysis buffer: 50 mM Tris-HCl (pH 7.4), 150 mM NaCl, 1% NP-40, 5 mM EDTA, 5 mM NaF, 2 mM Na3VO4, 1 mM PMSF, 5 μg/ml leupeptine, and 5 μg/ml aprotinin. Cell lysates were subjected to SDS-PAGE, transferred to PVDF membrane (Bio-Rad Laboratories, Hercules, Calif.), and immunoblotted with Abs against specific proteins.
Cells cultured with tubacin and/or bortezomib were harvested; washed, and lysed using lysis buffer: 50 mM Tris-HCl (pH 7.4), 150 mM NaCl, 1% NP-40, 5 mM EDTA, 5 mM NaF, 1 mM Na3VO4, 1 mM PMSF, 5 μg/ml leupeptine, and 5 μg/ml aprotinin. Whole cell lysates were subjected to SDS-PAGE, transferred to nitrocellulose membrane (Bio-Rad Laboratories, Hercules, Calif.), and immunoblotted with specific Abs (31). Western blotting was done using anti-HDAC6, acetylated lysine, acetylated histone H3, acetylated histone H4, ubiquitin (Ub), phospho-SAPK (JNK), caspase-8 caspase-9, caspase-3, and PARP Abs (Cell Signaling, Beverly, Mass.); with anti-α-tubulin Ab (Santa Cruz Biotechnology, Santa Cruz, Calif.); as well as with anti-dynein Ab (Sigma, Saint Louis, Mo.). For immunoprecipitation, whole cell lysates were incubated with anti-Ub or dynein Abs overnight at 4° C., and then incubated with protein A/G PLUS-Agarose (Santa Cruz Biotechnology) for 2 h at 4° C., as in our prior study (31). […]

## O=C(CCCCCCC(=O)Nc1ccccc1)NO [SAHA, reference compound]
  acetylation of lysine on histone H3 and H4: triggers more potent acetylation of lysine on histone H3 and H4 than α-tubulin; also recorded: markedly triggers acetylation of histones H3 and H4

Entries after “also recorded” stand apart in the source; their conditions may differ.
